Molecular target: TRFE receptor, TRF1, on HEK293A cells (human) (UniProt P02786)
Experiment: HATRIC-LRC (LRC-TriCEPS) ligand-receptor capture on HEK293A cells, LC-MS/MS; positive control of the screen

Chains of the proteins cited; added tags and fusions are not shown.
UniProt P02786, whole entry: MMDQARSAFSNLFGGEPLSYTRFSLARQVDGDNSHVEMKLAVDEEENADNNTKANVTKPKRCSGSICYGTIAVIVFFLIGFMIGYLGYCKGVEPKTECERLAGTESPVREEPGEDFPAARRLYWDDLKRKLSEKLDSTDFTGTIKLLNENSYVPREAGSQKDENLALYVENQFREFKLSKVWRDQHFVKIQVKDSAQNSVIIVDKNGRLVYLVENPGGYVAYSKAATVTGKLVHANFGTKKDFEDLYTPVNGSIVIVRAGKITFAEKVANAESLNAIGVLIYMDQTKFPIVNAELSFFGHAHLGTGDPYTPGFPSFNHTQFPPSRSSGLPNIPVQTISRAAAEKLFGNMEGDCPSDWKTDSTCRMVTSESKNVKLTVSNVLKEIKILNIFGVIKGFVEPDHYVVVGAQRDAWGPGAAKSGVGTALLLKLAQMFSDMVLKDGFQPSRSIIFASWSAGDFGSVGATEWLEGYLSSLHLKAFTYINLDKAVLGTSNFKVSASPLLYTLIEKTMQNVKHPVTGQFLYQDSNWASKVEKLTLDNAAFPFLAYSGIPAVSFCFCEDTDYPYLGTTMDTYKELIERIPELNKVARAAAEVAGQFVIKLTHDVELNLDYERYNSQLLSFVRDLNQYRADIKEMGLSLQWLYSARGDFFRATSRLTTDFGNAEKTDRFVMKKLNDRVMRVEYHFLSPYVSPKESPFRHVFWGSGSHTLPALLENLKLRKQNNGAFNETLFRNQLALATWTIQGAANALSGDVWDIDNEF

Question: How did the log 2 (FC), TRFE group against d34CCN2 group (log2 fold change) turn out when “transferrin (TRFE) coupled to TriCEPS v3.0 (ligand)” was run?
Answer: The log 2 (FC), TRFE group against d34CCN2 group (log2 fold change) was -3.35.

Reference: patent publication US20260041702A1
